# Experimental data from PubChem BioAssay AID1656 (Sanford-Burnham Center for Chemical Genomics, 2009).
# This is a selection; strong and weak results do not stand in their true shares. Some results for these compounds are left out of this collection, so the calls shown say nothing about other tests. Active and inactive are the calls of the source.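 The calls were made as follows: active = lipid droplet intensity inhibited by at least 50%, with more than 500 cells counted; inconclusive = wells with under 300 cells, treated as cytotoxic; inactive = the rest.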
# Test: oleate-induced lipid droplet accumulation in AML12 cells – imaging, high-throughput imaging, BODIPY stain, primary screen (AID 1656)
# Conditions: AML12 mouse hepatocytes, oleate lipid droplets, at 6.5 µM, stronger effect = higher value
# Outline: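 material = mouse AML12 hepatocyte cell line, fixed after treatment | also added = 100 µM oleic acid challenge | doses = compound at 6.5 µM only | schedule = overnight exposure | technique = Image-based BODIPY and DAPI two-channel analysis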
row,Compound,inhibition
1,O=C(OC1CN2CCC1CC2)C(CO)(c1ccccc1)c1ccccc1 (stereo unspecified),inactive: 0%
2,COc1ccc(Br)c(C(=O)NCC2(N3CCCCC3)CCCCC2)c1,inactive: -3.5%
3,CN(C)C1(CNC(=O)c2ccc(Br)cc2)CCCCC1,inactive: -4.7%
4,COc1cc(C(=O)NCC2(N(C)C)CCCCC2)c([N+](=O)[O-])cc1OC,inactive: -2.3%
5,COc1ccc(Cl)cc1C(=O)NCC1(N(C)C)CCCCC1,inactive: -5.7%
6,COc1cccc(C(=O)NCC2(N3CCCCC3)CCCCC2)c1,inactive: -17.6%
7,O=C(NCC1(N2CCCCC2)CCCCC1)c1cccc(Cl)c1,inactive: 1.8%
8,CN(C)c1ccc(C(=O)NCC2(N(C)C)CCCCC2)cc1,inactive: 13.6%
9,CN(C)C1CCCC1OC(=O)C(O)(c1ccccc1)c1ccccc1 (stereo unspecified),inactive: 5.3%
10,Cc1ccccc1C(=O)NCC1(N2CCCCC2)CCCCC1,inactive: 1.1%
11,O=C(NCC1(N2CCCCC2)CCCCC1)c1cc(F)c(F)cc1Cl,inactive: -73%
12,C=CCN1CCN(CCOC(=O)C(O)(c2ccccc2)c2ccccc2)CC1,inactive: 0.4%
13,COc1ccc(C(=O)NCC2(N(C)C)CCCCC2)cc1,inactive: 3.6%
14,O=C(NCC1(N2CCCCC2)CCCCC1)c1cccc(Br)c1,inactive: 3%
15,CCN1CCCC(OC(=O)C2(O)c3ccccc3C=Cc3ccccc32)C1 (stereo unspecified),inactive: -7.5%
16,Cc1cc(C(=O)NCC2(N3CCCCC3)CCCCC2)ccc1[N+](=O)[O-],inactive: 2.8%
17,O=C(NCC1(N2CCCCC2)CCCCC1)c1cc([N+](=O)[O-])ccc1Cl,inactive: -10.8%
18,CN1[C@@H]2CC[C@H]1CC(OC(=O)C(O)(c1ccccc1)c1ccccc1)C2 (stereo partly specified),inactive: -9.2%
19,COc1cc(SC)ccc1C(=O)NCC1(N(C)C)CCCCC1,inactive: -10.6%
20,CCN(CC)CC(C)C(C)OC(=O)C(O)(c1ccccc1)c1ccccc1 (stereo unspecified),inactive: 5.1%
21,Cc1ccc(C(=O)NCC2(N3CCCCC3)CCCCC2)cc1,inactive: -6.1%
